The values below are quoted from earlier work in US10959955B1 (RHOSHAN PHARMACEUTICALS, INC., priority 2017, dated 2021).

The conditions of the data set: cited from earlier work.

o-acetylsalicylic acid [Aspirin]: the solubility entry (pH 5.5 and above, listed as ASA) is given as “greater than 100 mg/ml”. For the same substance, for the setting “water”, the aqueous solubility entry was “about 3 mg/ml”.
